This is a selection; strong and weak results do not stand in their true shares. Active and inactive are the calls of the source.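 How the source made its calls: active means inhibition above about 39% in either of two replicate wells at 20 µM (limit read from the data); inactive means the rest.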
Assay: growth inhibition of tim23-1 ts yeast, retest – luminescence, single concentration, confirmation (AID 463218);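 further: temperature-sensitive tim23-1 mutant grown at 25 °C; 0% = DMSO wells with yeast and 100% = medium wells without yeast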
Conditions: S. cerevisiae tim23-1 growth, BacTiter-Glo luminescence, 24 h; at 20 µM; stronger effect = higher value
In the case of O=[N+]([O-])c1cc([N+](=O)[O-])c(CCNc2ccccc2)c([N+](=O)[O-])c1, the inhibition is reported as inactive: 3.05%.
With C[N+]1=C2C=CC=CC=C2SC12C([N+](=O)[O-])=CC([N+](=O)[O-])=C[C-]2[N+](=O)[O-] (stereo not drawn) the inhibition was active: 76.3%.
For Cc1ccc(NCCc2c([N+](=O)[O-])cc([N+](=O)[O-])cc2[N+](=O)[O-])cc1, the inhibition was inactive: 27.6%.

— PubChem BioAssay AID463218 (Sanford-Burnham Center for Chemical Genomics, 2010)
